Results published in ChEMBL document CHEMBL5705888, “Substrate specificity and inhibitors of LRRK2, a protein kinase mutated in Parkinson's disease” (Biochem J, 2009).

Protein sequences, listed by entry. Tags and fused reporters are not part of them.
UniProt Q5S007, whole entry G2019S: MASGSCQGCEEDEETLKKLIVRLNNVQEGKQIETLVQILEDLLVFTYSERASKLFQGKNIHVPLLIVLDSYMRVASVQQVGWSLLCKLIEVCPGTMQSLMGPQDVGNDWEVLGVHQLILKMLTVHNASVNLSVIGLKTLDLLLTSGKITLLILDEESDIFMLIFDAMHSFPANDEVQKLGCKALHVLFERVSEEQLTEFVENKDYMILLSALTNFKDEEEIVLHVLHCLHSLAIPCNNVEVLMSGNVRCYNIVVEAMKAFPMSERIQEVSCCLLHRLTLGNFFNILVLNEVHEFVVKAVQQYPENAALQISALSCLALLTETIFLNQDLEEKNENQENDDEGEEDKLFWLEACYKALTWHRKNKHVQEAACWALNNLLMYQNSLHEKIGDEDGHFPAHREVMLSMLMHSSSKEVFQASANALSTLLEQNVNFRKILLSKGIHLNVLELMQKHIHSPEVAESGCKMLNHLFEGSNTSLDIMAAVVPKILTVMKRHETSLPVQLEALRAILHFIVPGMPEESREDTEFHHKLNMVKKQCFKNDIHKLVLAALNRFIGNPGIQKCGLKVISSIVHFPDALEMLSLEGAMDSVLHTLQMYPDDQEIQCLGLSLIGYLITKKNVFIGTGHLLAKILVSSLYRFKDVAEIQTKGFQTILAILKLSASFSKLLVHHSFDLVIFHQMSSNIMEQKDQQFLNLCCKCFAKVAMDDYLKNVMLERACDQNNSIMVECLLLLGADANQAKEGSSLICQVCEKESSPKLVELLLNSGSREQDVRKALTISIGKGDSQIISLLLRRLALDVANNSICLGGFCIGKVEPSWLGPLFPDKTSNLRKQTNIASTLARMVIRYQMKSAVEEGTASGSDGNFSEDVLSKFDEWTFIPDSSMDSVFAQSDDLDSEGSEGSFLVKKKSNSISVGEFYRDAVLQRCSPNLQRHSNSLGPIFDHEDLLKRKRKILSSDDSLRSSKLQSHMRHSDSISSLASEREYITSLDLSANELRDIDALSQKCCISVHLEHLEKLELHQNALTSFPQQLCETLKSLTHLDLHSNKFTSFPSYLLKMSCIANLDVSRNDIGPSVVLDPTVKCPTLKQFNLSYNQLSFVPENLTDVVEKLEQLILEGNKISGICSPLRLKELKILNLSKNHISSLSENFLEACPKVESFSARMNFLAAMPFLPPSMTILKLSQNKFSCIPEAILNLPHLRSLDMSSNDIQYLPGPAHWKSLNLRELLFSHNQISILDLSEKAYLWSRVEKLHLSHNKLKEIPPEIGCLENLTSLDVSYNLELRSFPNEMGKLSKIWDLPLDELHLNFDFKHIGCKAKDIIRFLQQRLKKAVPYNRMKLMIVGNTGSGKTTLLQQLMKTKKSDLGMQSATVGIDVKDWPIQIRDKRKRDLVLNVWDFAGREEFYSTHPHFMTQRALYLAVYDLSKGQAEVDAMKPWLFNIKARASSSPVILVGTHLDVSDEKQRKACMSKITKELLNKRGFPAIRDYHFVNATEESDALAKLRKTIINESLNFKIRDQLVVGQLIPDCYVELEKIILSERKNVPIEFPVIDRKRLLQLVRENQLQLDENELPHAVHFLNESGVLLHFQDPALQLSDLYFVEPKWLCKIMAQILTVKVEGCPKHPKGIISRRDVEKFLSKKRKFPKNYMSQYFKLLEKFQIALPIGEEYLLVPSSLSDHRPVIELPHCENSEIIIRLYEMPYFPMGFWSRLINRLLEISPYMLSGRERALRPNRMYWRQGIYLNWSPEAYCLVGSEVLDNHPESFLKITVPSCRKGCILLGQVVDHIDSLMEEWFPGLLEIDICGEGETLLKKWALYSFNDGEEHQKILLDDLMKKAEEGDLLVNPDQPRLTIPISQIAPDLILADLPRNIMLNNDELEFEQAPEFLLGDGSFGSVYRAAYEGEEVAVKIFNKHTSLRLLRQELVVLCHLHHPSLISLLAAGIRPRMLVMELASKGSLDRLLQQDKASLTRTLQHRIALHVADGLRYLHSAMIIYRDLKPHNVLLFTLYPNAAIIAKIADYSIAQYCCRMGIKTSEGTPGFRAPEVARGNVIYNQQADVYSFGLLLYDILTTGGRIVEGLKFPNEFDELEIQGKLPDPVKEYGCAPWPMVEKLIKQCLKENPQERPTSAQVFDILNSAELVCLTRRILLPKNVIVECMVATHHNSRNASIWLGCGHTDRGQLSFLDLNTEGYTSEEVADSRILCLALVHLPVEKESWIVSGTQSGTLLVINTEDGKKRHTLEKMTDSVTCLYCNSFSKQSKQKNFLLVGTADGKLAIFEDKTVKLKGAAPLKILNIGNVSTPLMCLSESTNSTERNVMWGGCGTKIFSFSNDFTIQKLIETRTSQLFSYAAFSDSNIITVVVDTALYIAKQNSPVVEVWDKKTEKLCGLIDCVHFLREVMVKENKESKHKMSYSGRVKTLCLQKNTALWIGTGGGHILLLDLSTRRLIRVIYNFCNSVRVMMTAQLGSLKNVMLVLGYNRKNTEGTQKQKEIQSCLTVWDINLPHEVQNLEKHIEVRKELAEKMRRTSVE

Key:
[1] = system: Leucine-rich repeat serine/threonine-protein kinase 2 (Homo sapiens), Q5S007 [G2019S]; assay: Inhibition of LRRK2 G2019S mutant (unknown origin) at 0.1 uM incubated for 30 mins in presence of [gamma-33P]ATP by multidrop micro reagent based assay relative to control
[2] = molecular target: Leucine-rich repeat serine/threonine-protein kinase 2 (Homo sapiens, UniProt Q5S007); assay: Inhibition of LRRK2 (unknown origin) at 0.1 uM incubated for 30 mins in presence of [gamma-33P]ATP by multidrop micro reagent based assay relative to control

With CCN(CC)CCNC(=O)c1c(C)[nH]c(/C=C2\C(=O)Nc3ccc(F)cc32)c1C the inhibition [1] was 14% and the inhibition [2] was 42%.
